The values that follow come from patent US11052082B2 (priority 2012, dated 2021).

Counter-ions that a name gives are not always drawn.

Experiment [1] has as its system xenograft-derived ALL-cells (ALL-SCID6, ALL-SCID3, ALL-SCID7). Description: Apoptosis induction in xenograft-derived ALL-cells with high opioid-receptor expression. It counts as cell-based, human. Particulars: 3 μg/mL D,L-methadone (therapeutic plasma concentration); cells expressing high amounts of opioid-receptors; 24 h and 48 h.
The next experiment deals with BCP-ALL-cell line Tanoue. Type of experiment: cell-based, human. Conditions: 96 h; 3 μg/mL D,L-methadone + 0.06 μg/mL doxorubicin; 60 μg/mL naloxone, 200 μM IBMX or PTX.

Turning to `CCC(=O)C(CC(C)N(C)C)(c1ccccc1)c1ccccc1` (racemic) [D,L-methadone, D,L-methadone hydrochloride], the cell death induction entry in experiment [1] is listed as “strong cell death”.
For `C=CCN1CC[C@]23c4c5ccc(O)c4O[C@H]2C(=O)CC[C@@]3(O)[C@H]1C5` [naloxone], the “effect on apoptosis rates of combination treatment with D,L-methadone and doxorubicin” value with BCP-ALL-cell line Tanoue is given as “strongly reduced the apoptosis rates”.
